Drawing on publication PMC3534778 (European journal of pharmacology, 2012), this text covers Ki for 3 compounds.

Assay [1] concerns the target NMDA receptor. It counts as binding, rat.
Assay [2] deals with NMDA receptor. The following applies: read-out: Ki, NMDA receptor; cited from earlier work.

Read-outs that look alike come from different tables or passages of the source.

`CN[C@@]1(c2ccccc2Cl)CCCCC1=O` [(R)-Ketamine, (R)-ketamine, reference compound] registered a Ki at NMDA receptor [1] of 2570 ± 280 nM. Same read-out and setting: next, `CN[C@]1(c2ccccc2Cl)CCCCC1=O` [(S)-Ketamine, (S)-ketamine, reference compound]: 690 ± 90 nM. In the case of `CNC1(c2ccccc2Cl)CCCCC1=O` (racemic) [(R,S)-Ketamine, reference compound], the results for the Ki on NMDA receptor [1] and at NMDA receptor [2] were 1060 ± 140 nM and 530 nM, respectively.
